According to article PMC4552487:

Tests used:
[1] = molecular target: full-length wild-type Parkin (1-465), untagged (UniProt O60260)
[2] = molecular target: full-length Parkin His302Ala (H302A) mutant, untagged (UniProt O60260); experiment: ITC; ubiquitin^PhosSer65 in the syringe titrated into 50 μM wild-type or mutant Parkin in the cell; 50 mM HEPES pH 8.0, 150 mM NaCl, 500 μM TCEP; 20°C; single binding site model
[3] = molecular target: full-length wild-type Parkin (1-465), untagged (UniProt O60260); experiment: as above

- stoichiometry of phosphorylation of Parkin Ubl Ser65 by PINK1 in a kinase assay, increasing ubiquitin^Phospho-Ser65 up to 3-fold excess over Parkin (∼0.2 without) [1]: 0.9
- Kd [2]: 42 µM
- Kd [3]: 0.156 µM
Substance: Ser65-phosphorylated ubiquitin (ubiquitin^Phospho-Ser65) (from UniProt P0CG53 1-76) (natural protein)
